Literature values, collected in patent US11872302B2, “Product for dyeing keratinous material, containing aminosilicone, a chromophoric compound and ester oil” (Henkel AG & Co. KGaA, priority 2019, dated 2024).

Conditions: 25° C.

3,4,5,6-tetrachloro-2-(1,4,5,8-tetrabromo-6-hydroxy-3-oxoxanthen-9-yl)benzoic acid [Acid Red 92]
solubility in water: greater than 10 g/L
